Consider one compound from patent publication US11807693B2 (priority 2014, dated 2023).

The target in experiment [1] is T1, human APJ receptor (Homo sapiens, UniProt P35414).
T1 construct: expressed in transfected cells
T1 sequence (P35414 1-380): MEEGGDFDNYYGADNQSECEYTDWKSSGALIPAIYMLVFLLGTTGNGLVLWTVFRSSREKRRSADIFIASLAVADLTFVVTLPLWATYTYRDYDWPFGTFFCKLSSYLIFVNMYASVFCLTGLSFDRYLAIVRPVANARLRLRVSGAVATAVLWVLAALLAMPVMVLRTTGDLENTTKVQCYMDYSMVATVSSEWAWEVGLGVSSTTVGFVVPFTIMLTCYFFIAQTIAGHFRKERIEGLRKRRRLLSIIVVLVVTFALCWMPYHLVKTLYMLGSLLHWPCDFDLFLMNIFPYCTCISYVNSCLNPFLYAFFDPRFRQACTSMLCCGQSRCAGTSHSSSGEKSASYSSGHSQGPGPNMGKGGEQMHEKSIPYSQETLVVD
The experiment in a line: [35S] GTPγS assay, human APJ receptor. The format is biochemical. For orientation: GTPγS is a poorly hydrolysed GTP analogue; its binding reports G protein activation.

The target in experiment [2] is T2, rat APJ receptor (Rattus norvegicus, UniProt Q9JHG3).
T2 construct: expressed in transfected cells
T2 sequence (Q9JHG3 1-377): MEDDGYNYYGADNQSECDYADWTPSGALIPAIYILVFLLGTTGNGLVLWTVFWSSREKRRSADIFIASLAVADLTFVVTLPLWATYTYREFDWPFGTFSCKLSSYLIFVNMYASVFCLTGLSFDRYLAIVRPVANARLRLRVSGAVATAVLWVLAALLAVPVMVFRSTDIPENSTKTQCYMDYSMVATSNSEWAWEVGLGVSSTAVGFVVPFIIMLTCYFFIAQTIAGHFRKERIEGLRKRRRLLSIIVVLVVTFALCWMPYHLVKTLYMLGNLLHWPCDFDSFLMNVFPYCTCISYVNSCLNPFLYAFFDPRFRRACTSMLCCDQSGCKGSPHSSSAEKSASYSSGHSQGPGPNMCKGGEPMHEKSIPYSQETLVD
As to the kind of experiment: [35S] GTPγS assay, rat APJ receptor. The class given is biochemical. The procedure:
The membranes were incubated with modified peptides in the assay buffer. […] Bound [^35S] GTPγS was separated from free radiolabel by filtration. The filter bound radioactivity was determined by liquid scintillation counting.

Usually EC50 stands for the concentration at which the effect is half-maximal.

Regarding `CC[C@H](C)[C@H](NC(=O)[C@H](CC(C)C)NC(=O)[C@H](CCCNC(=N)N)NC(=O)[C@H](CCCCN)NC(=O)[C@H](Cc1ccc(O)cc1)NC(=O)[C@H](Cc1ccccc1)NC(=O)[C@H](CC(=O)O)NC(=O)[C@H](CO)NC(C)=O)C(=O)N[C@@H](CC(N)=O)C(=O)N[C@@H](CCCCN)C(=O)N[C@@H](C)C(=O)N[C@@H](CCCCN)C(=O)NCCOCCOCC(=O)NCCOCCOCC(=O)N[C@@H](CCCCNC(=N)N)C(=O)N[C@H](CCCNC(=N)N)C(=O)N[C@@H](CCC(N)=O)C(=O)N[C@@H](CCCCNC(=N)N)C(=O)N1CCC[C@H]1C(=O)N[C@H](CCCNC(=N)N)C(=O)N(C)[C@@H](CC(C)C)C(=O)N[C@@H](CO)C(=O)N[C@@H](Cc1c[nH]cn1)C(=O)N[C@@H](CCCCN)C(=O)NCC(=O)N1[C@H](C(=O)N[C@@H](Cc2ccc(I)cc2)C(=O)N2CCC[C@H]2C(=O)N[C@H](Cc2ccc(-c3ccccc3)cc2)C(=O)O)C[C@@H]2CCCC[C@@H]21` [compound 94], the EC50 in experiment [1] was found to be 1.34 nM; in experiment [2] it was 1.33 nM.
